Test [1] addresses T1, PPARγ LBD / TRAP220/MED1 coactivator peptide (Homo sapiens, UniProt P37231).
T1 construct: residues 203–477 (isoform 1 numbering) with a TEV-cleavable N-terminal hexa-his-tag; made in house; host or cells: Escherichia coli BL21(DE3), pET46 plasmid
Description: TR-FRET coregulator interaction assay, TRAP220/MED1 coactivator peptide. In kind it is biochemical. The text has this: (§1) We next characterized the ligand set using biochemical assays that report on ligand-dependent changes in the interaction between PPARγ LBD and FITC-labeled peptides derived from NR coregulator proteins that contribute to PPARγ-mediated transcription in cells, including the TRAP220/MED1 coactivator and NCoR1 corepressor. We used time-resolved fluorescence resonance energy transfer (TR-FRET) assays to determine relative ligand potency (or covalent reactivity) and efficacy (via increased or decreased TR-FRET ratio values). […] We performed fluorescence polarization (FP) assays to directly measure binding affinities between the PPARγ LBD and coregulator peptides.
(§2) 2 Biochemical coregulator profiling data. Time-resolved fluorescence resonance energy transfer (TR-FRET) coregulator interaction assay performed with (A) the NCoR1 corepressor peptide or (B) the TRAP220/MED1 coactivator peptide in the presence of the indicated ligands. Data represent mean ± s.e.m. […] Fluorescence polarization (FP) binding assay performed with (C) NCoR1 corepressor peptide or (D) TRAP220/MED1 coactivator peptide in the presence of the indicated ligands. Data represent mean ± s.e.m. […]
(§3) Time-resolved fluorescence resonance energy transfer (TR-FRET) coregulator peptide interaction assays were performed in low-volume black 384-well plates (Greiner) using a 23 μL final well volume. […]
For orientation: In TR-FRET formats the signal depends on donor and acceptor labels being close together.

Chains of the proteins cited; added tags and fusions are not shown. Residues count along the entry.
UniProt P37231, 231-505: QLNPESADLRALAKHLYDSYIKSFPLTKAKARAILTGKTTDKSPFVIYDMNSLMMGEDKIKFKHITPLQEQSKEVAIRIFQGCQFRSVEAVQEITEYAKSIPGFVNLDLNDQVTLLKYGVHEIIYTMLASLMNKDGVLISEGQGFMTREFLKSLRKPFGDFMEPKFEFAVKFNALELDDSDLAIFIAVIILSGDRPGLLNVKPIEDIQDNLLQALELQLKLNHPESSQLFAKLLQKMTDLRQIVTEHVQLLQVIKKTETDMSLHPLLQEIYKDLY

Test [2] has as its target T2, full-length human PPARγ (isoform 2) (Homo sapiens, UniProt P37231).
T2 construct: full-length human PPARγ (isoform 2) expression plasmid; expressed in transfected cells; host or cells: HEK293T (ATCC #CRL-11268)
Nature of the test: Transcriptional reporter assay (3xPPRE-luciferase) in HEK293T cells transfected with full-length PPARγ. The conditions noted are these: 3xPPRE-luciferase reporter. In kind it is cell-based. As to the method: 1 Pharmacological PPARγ ligand set used in this study. (A) Chemical structures and pharmacological properties of the ligands. […] (B) Transcriptional reporter assay performed in HEK293T cells transfected with a full-length PPARγ expression plasmid and a 3xPPRE-luciferase reporter plasmid. Data were normalized to cells treated with DMSO control, represented as mean ± s.d.
After an 18 h incubation, cells were transferred to white 384-well cell culture plates (Thermo Fisher Scientific) at 10,000 cells/well in 20 μL total volume/well. After a 4 h incubation, cells were treated in quadruplicate with 20 μL of either vehicle control (1.5% DMSO in DMEM) or a 3-fold serial dilution of ligands (1 μM highest ligand concentration). After a final 18 h incubation, cells were harvested with 20 μL of Britelite Plus (PerkinElmer), and luminescence was measured on a BioTek Synergy Neo multimode plate reader. Data were plotted in GraphPad Prism as luminescence vs ligand concentration as mean ± s.d. (n = 4) and fit to a three-parameter sigmoidal dose–response curve equation.
A general note: Reporter assays use an easily measured gene product as a stand-in for the process of interest.

The target in test [3] is T3, PPARγ LBD / NCoR1 corepressor peptide (Homo sapiens, UniProt P37231).
T3 construct: residues 203–477 (isoform 1 numbering) with a TEV-cleavable N-terminal hexa-his-tag; made in house; host or cells: Escherichia coli BL21(DE3), pET46 plasmid
Description: TR-FRET coregulator interaction assay, NCoR1 corepressor peptide. In kind it is biochemical.
Excerpt: as §1, §2, §3

With `CN(CCOc1ccc(CC2SC(=O)NC2=O)cc1)c1ccccn1` (stereo not drawn) [rosiglitazone], the “effect on TRAP220/MED1 coactivator peptide interaction, TR-FRET efficacy (in words)” value in test [1] is given as “increased TRAP220/MED1 coactivator interaction”. Also, the “effect on PPARγ-mediated transcription (in words)” value in test [2] was “increased transcription”. Further, the “effect on NCoR1 corepressor peptide interaction, TR-FRET efficacy (in words)” value in test [3] is on record as “decreased NCoR1 corepressor interaction”.

Values taken from article PMC12406200, “Structural Basis of PPARγ-Mediated Transcriptional Repression by the Covalent Inverse Agonist FX-909” (Journal of Medicinal Chemistry, 2025).
